Source: US20240245771A1 (XUZHOU MEDICAL UNIVERSITY, published 2024)

Target: T1, B7H3 target antigen (UniProt Q5ZPR3 29-466, limits assumed)
T1 construct: Control antigen is called 'other biotin-free antigen', which hints that this antigen may be biotinylated; also called B7H3 antigen; B7-H3 antigen
T1 sequence (looked up): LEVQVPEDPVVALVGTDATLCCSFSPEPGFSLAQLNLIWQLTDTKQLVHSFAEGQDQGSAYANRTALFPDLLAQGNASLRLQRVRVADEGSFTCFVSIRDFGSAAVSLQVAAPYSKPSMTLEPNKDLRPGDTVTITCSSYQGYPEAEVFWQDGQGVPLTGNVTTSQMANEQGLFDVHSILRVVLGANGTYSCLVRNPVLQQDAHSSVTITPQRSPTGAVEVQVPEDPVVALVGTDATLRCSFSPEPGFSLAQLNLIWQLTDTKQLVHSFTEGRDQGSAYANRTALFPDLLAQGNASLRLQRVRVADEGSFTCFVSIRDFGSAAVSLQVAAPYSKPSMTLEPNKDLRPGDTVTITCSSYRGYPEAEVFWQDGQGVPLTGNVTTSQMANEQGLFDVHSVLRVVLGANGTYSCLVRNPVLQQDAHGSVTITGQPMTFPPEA
Experiment: SPR (Biacore): B7H3-02 antibody at 1 µg/mL captured on a Protein A chip, B7-H3 antigen flowed over in a concentration series, Langmuir fit

koff: 0.124 s⁻¹
kon: 4.47e+06 M⁻¹ s⁻¹
B1: purified B7H3-02 scFv protein (prokaryotic expression, pET-22b) (scFv)
scFv: EVQLFQSGGGLVQPGGSLRLSCAASGFTFSSYAMSWVRQAPGKGLEWVSAISGSGGSTYYADSVKGRFTISRDNSKNTLYLQMNSLRAEDTAVYYCARGVGRGFDYWGQGTTVTVSSSGGGSGGGGSGGGGSDIQLTQSPSSLSASVGDRVTITCRASQSISIYLNWYRQQPGKAPKLLIYAASSLQSGVPSRFSGSGSGTDFTLTISSLQPEDFATYFCQQTYSTPPWTFGQGTKVDIK
notes: The Biacore experiment speaks of 'purified B7H3-02 antibodies' captured on a Protein A chip; also called B7H3-02 scFv antibody; B7H3-02 antibody; not shown: His tag implied (detected with His antibodies, pET-22b vector)
